From article PMC12904088, “Development of Dimethylsulfonium Probes for Broad Profiling of Methyllysine Reader Proteins” (Advanced Science, 2025)

Sequences of proteins named here, by UniProt entry; tags and fusion partners are left off.
UniProt P83916, whole entry, species assumed: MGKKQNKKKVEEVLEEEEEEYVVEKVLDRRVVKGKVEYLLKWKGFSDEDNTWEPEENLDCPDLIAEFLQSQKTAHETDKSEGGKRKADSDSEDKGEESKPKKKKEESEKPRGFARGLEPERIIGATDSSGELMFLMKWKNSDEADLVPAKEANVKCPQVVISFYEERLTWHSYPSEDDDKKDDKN

Target: T1, CBX1 (Homo sapiens, UniProt P83916)
T1 construct: BPTF, CBX1, and SPIN1 were expressed and purified as previously reported; made in house
Assay: Competitive crosslinking with site-specific methylated peptides
Assay type: biochemical
Details: 2.5 mM general probe, 100 µM competing peptide (1‐15), 10 µM CBX1, pH 7.5, UV 20 min, MS
Method: Probes were added to the crosslinking buffer (100 mM HEPES, pH 7.5), followed by the addition of reader proteins. The mixture was transferred to 96‐well plates and incubated on ice for 10 min. After UV irradiation on ice at an energy of 720 mJ cm^−2, the samples were analyzed by UPLC‐Q‐TOF‐MS. The analytical yield was calculated based on the mass peak areas as previously reported.^[ [55] ^] The yield is calculated as the peak area of the desired product divided by the sum of the peak areas of the crosslinking products and the starting material, multiplied by 100%. For crosslinking readers with general probes: The mixture of 5 mM general probes and 10 µM reader proteins (BPTF, CBX1, CDYL2) was crosslinked by the General procedure for crosslinking for 30 min. For competition assays, the mixture of 2.5 mM general probes, 100 µM H3K4me3 (1‐15) or H3K9me3 (1‐15) peptide or 7.5 mM RKGGGGGGKme3GG, 10 µM reader proteins (BPTF, CBX1) was crosslinked by the General procedure for crosslinking for 20 min (H3K4me3 or H3K9me3 for competition) or 30 min (RKGGGGGGKme3GG for competition). For Kinetics of reader crosslinking: The mixture of 0.625/1.25/2.5/5/10 mM general probe and 10 µM reader proteins was crosslinked by the General procedure for crosslinking for 20 min. […]

Competition of general probe (prototype, peptide 1) crosslinking with CBX1	Substance
but not the H3K4me3 peptide	H3K4me3 peptide: site-specific methylated competing peptide, from previous work
effectively competed	H3K9me3 peptide: site-specific methylated competing peptide, from previous work
